Like-named read-outs stand apart in the source and are kept apart here.
Target: T1, Human full-length diacylglycerol:acylCoA acyltransferase 1 (DGAT-1) (Homo sapiens, UniProt O75907)
T1 construct: Human full-length diacylglycerol:acylCoA acyltransferase 1 (DGAT-1) was expressed in Sf9 insect cells; made in house; host or cells: Sf9 insect cells (baculovirus)
T1 sequence (O75907 1-488): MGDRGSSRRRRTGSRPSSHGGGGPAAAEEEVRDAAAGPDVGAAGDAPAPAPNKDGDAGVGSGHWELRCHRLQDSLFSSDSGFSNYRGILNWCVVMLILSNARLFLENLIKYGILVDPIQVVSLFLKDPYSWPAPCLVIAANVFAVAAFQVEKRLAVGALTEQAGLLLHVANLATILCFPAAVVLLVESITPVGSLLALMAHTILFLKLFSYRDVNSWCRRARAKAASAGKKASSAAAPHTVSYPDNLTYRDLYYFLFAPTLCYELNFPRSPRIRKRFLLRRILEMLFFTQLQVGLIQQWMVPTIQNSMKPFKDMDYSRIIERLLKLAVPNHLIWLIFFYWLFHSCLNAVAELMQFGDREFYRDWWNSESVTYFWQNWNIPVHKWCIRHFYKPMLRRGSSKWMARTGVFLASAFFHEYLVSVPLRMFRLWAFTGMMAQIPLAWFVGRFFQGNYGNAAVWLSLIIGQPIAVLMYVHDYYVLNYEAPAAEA
Assay: In vitro assay for DGAT-1 inhibition ([14C]decanoylCoA, Sf9 membrane fraction)
Assay type: biochemical
Description: Human full-length diacylglycerol:acylCoA acyltransferase 1 (DGAT-1) was expressed in Sf9 insect cells which are then lysed and a crude membrane fraction (105,000×g pellet) was prepared.
The cells were cultured as follows. Sf9 cells (20 L) were infected with 4 mL of DGAT1 Baculovirus Infected Insect Cells (BIIC) for 72 hours in a Wave Bioreactor System 20/50P (Wave Biotec/GE Healthcare).
Crude DGAT-1 microsomes were prepared as follows. Cell pellets were washed once with ice-cold Dulbecco's phosphate-buffered saline. Cells were collected in tabletop centrifuge (Beckman GS-6KR), 15 minutes, 2000×g, 4° C. Twenty (20) mL of ice-cold Microsome Buffer (MB) was added per 5 g of cell pellet. The suspension was passed through a microfluidizer 3 times (18K psi). The lysate was transferred to centrifuge tubes and centrifuged for 20 minutes at 5000×g (Beckman-Coulter, Inc. Allegra® 64R High-Speed Refrigerated Benchtop Centrifuge, F0650 rotor) at 4° C. The supernatant was transferred to Ultracentrifuge tubes and centrifuged at […] for 1 hr in a Beckman Ti-45 rotor, 4° C. The supernatant fluid was discarded. The pellet was resuspended in 70 mL of MB by sonication. The microsome concentration was determined using Bio-Rad Protein DC Protein Assay. The microsomes were filter sterilized with a 0.22 μm filter. The samples were portioned, flash frozen and stored at −80° C. […]

IC50 (apparent IC50, eight inhibitor concentrations 10 μM to 3 nM, read-out: IC50): 0.0247 µM | IC50 (inhibition range where the assay was performed on a compound more than once, read-out: IC50 range): 0.0202 to 0.0367 µM
Substance: (trans-4-{4-[(7R)-4-amino-7-methyl-5-oxo-7,8-dihydropyrimido[5,4-f][1,4]-oxazepin-6(5H)-yl]phenyl cyclohexyl)acetic acid [Example 14]
